In ChEMBL document CHEMBL1153781, “Prediction of volume of distribution values in human using immobilized artificial membrane partitioning coefficients, the fraction of compound ionized and plasma protein binding data” (Eur J Med Chem, 2009):

Assay: Dissociation constant, pKa of the compound
Assay type: physicochemical

pKa: 7.65
Compound: CCC[C@@H]1C[C@@H](C(=O)N[C@@H]([C@H]2O[C@H](SC)[C@H](O)[C@@H](O)[C@H]2O)[C@@H](C)O)N(C)C1 [LINCOMYCIN]
